Assays:
Type in all cases: cell-based
[1] = molecular target: Retinoic acid receptor alpha (Homo sapiens, UniProt P10276); assay: Agonist activity at recombinant human RAR-alpha expressed in mammalian cells by luciferase reporter gene based transactivation assay relative to control
In short: (§1)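 Transactivation in proprietary reporter cells expressing recombinant human RAR subtype with RARE-linked beetle luciferase. Compounds in DMSO (final 0.4%), 8-point dose response in triplicate; cells added, incubated overnight at 37 °C, 5% CO2, then luciferase reagent 30 min r.t., luminescence read.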

The chains behind the UniProt entries cited, without tags or fusion partners.
UniProt P10276, whole entry: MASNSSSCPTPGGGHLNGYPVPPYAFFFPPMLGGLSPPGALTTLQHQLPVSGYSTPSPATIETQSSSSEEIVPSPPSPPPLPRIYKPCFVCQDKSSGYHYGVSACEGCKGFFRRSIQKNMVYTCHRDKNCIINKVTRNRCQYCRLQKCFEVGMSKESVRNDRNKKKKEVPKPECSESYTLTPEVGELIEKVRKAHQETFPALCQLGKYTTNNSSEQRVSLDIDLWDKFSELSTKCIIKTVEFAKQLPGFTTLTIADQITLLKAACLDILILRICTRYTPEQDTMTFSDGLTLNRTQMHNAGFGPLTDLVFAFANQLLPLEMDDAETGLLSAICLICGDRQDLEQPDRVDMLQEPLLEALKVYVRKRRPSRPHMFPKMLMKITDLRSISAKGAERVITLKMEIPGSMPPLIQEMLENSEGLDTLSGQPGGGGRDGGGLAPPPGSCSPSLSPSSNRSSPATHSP
UniProt P10826, whole entry: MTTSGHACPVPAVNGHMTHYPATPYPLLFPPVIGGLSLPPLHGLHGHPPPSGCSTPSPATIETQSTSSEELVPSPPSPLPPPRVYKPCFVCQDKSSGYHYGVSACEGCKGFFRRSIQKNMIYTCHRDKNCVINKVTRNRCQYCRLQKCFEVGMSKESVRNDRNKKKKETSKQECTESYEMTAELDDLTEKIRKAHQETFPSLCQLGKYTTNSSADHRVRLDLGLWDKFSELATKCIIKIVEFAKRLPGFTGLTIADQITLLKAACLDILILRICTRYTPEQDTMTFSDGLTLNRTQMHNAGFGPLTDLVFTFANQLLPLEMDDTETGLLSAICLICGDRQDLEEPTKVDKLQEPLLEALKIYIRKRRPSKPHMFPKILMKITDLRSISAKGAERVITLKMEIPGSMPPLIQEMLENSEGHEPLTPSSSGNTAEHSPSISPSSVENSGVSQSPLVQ
UniProt P13631, whole entry: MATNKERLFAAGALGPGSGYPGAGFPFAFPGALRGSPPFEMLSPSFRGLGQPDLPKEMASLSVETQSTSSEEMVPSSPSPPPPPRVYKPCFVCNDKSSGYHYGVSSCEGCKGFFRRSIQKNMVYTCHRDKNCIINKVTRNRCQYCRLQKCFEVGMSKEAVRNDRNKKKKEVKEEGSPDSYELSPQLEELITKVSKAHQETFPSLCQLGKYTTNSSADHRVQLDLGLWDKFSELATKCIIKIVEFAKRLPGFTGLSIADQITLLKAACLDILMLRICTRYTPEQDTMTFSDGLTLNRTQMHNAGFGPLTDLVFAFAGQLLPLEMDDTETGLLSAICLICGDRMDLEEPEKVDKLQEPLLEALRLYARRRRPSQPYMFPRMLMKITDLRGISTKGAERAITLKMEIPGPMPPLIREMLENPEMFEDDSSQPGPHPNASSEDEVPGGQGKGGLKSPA

[2] = molecular target: Retinoic acid receptor beta (Homo sapiens, UniProt P10826); assay: Agonist activity at recombinant human RAR-beta expressed in mammalian cells by luciferase reporter gene based transactivation assay relative to control; in short: as §1
[3] = molecular target: Retinoic acid receptor gamma (Homo sapiens, UniProt P13631); assay: Agonist activity at recombinant human RAR-gamma expressed in mammalian cells by luciferase reporter gene based transactivation assay relative to control; in short: as §1

Row | SMILES | Emax [1] | Emax [2] | Emax [3]
1 | CC1(C)CC=C(c2ccccc2)c2cc(/C=C/c3ccc(C(=O)O)cc3)ccc21 | 12% | – | –
2 | CC1(C)CC=C(c2cnc3ccccc3c2)c2cc(C(=O)Nc3ccc(C(=O)O)cc3)ccc21 | 0% | 0% | 0%

Reference: ChEMBL document CHEMBL5634116, “Strategies for developing retinoic acid receptor alpha-selective antagonists as novel agents for male contraception” (Eur J Med Chem, 2023)
